Target: human BACE1 (1-460):Fc (Homo sapiens (Human), UniProt P56817)
Experiment: BACE1 FRET Assay
Type: biochemical
Conditions: purified recombinant huBACE1:Fc, FRET substrate, pH 4.6; Mean ± SEM
Protocol: For in vitro enzymatic and cellular assays, test compounds are prepared in DMSO to make up a 10 mM stock solution. The stock solution is serially diluted in DMSO to obtain a ten-point dilution curve with final compound concentrations ranging from 10 μM to 0.05 nM in a 96-well round-bottom plate before conducting the in vitro enzymatic and whole cell assays.
Human BACE1 (accession number: AF190725) is cloned from total brain cDNA by RT-PCR. The nucleotide sequences corresponding to amino acid sequences #1 to 460 are inserted into the cDNA encoding human IgG1 (Fc) polypeptide (Vassar et al., Science, 286, 735-742 (1999)). This fusion protein of BACE1 (1-460) and human Fc, named huBACE1:Fc, is constructed into the pJB02 vector. Human BACE1 (1-460):Fc (huBACE1:Fc) is transiently expressed in HEK293 cells. 250 μg cDNA of each construct is mixed with Fugene 6 and added to 1 liter HEK293 cells. Four days after the transfection, conditioned media are harvested for purification. huBACE1:Fc is purified by Protein A chromatography. The enzyme is stored at −80° C. in small aliquots. […]
Serial dilutions of test compounds are prepared as described above. […] The RFU of the mixture at time 0 is recorded at excitation wavelength 355 nm and emission wavelength 460 nm, after brief mixing on a plate shaker. […] The RFU at the end of incubation is recorded with the same excitation and emission settings used at time 0. […]

Chains of the proteins cited; added tags and fusions are not shown. Residues count along the entry.
UniProt P56817, 22-460: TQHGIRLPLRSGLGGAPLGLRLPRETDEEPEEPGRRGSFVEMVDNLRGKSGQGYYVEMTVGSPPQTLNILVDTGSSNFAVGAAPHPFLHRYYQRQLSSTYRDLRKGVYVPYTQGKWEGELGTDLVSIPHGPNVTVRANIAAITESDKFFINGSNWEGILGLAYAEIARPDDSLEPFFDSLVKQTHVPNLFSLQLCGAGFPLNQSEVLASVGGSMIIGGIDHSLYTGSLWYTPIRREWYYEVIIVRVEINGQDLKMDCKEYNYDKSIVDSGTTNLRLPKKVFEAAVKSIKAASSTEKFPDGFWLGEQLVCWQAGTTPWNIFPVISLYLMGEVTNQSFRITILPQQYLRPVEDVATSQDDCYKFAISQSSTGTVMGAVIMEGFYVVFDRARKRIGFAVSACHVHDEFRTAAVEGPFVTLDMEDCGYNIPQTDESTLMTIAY

Question: With `COc1cnc(C(=O)Nc2ccc(F)c([C@]34COC[C@@]3(F)CSC(N)=N4)c2)cn1.Cl` [Example 2, N-[3-[(4aR,7aS)-2-Amino-4a-fluoro-5,7-dihydro-4H-furo[3,4-d][1,3]thiazin-7a-yl]-4-fluoro-phenyl]-5-methoxy-pyrazine-2-carboxamide hydrochloride] as the compound, how does the IC50 read?
Answer: 13.2 nM

— patent publication US9029367B2, “BACE inhibitors” (Eli Lilly and Company, priority 2013, dated 2015)
